Reference: patent US20260097138A1, “BIOMATERIAL COATED NANOSTRUCTURES FOR PHOTOACOUSTIC IMAGING AND PHOTOTHERMAL THERAPY OF TUMOR LESIONS” (OSPEDALE SAN RAFFAELE S.R.L., priority 2022, published 2026)

Legend:
MB49-Luc cells = experiment: Cell adhesion assay on coated microtiter plates; type: cell-based, murine; settings: crystal violet stain
Method: (§1) Cell adhesion assays: 96-well PVC microtiter plates were coated with Iso4-HSA or GNRs@Chit-Iso4 in 50 mM sodium phosphate, pH 7.3, containing 150 mM sodium chloride, (overnight incubation at 4 C). The plates were washed and blocked with 2% BSA in DMEM or RPMI-1640 (200 μl/well, 1 h). MB49-Luc and 5637 cells were detached with DPBS-E, washed twice with DPBS, and suspended in DMEM or RPMI-1640 containing 0.1% BSA (binding buffer-3), and added to the coated-plates (1.5×10^5 cells/well, 100 μl). After 1-2 h of incubation at 37° C., 5% CO2, the plates were washed with binding buffer-3. Adherent cells were fixed and stained with 0.5% crystal violet in 20% methanol. After washing with water, the dye was extracted from cells using a 10% acetic acid solution (140 μl/well) and the absorbance at 570 nm was measured using a microplate reader. The effect of urine on the pro-adhesive properties of GNRs@Chit-Iso4 was investigated as described above, except that the cells were seeded in binding buffer-3 or binding buffer-1 and various amounts of human urine (obtained from a healthy volunteer).

5637 cells = experiment: Cell adhesion assay on coated microtiter plates; type: cell-based, human; settings: crystal violet stain
Method: as §1

Substance | cell adhesion to solid phase coated with the substance (MB49-Luc cells) | cell adhesion to solid phase coated with the substance (5637 cells)
*HSA: HSA activated with sulfo-SMCC and quenched with β-mercaptoethanol instead of Iso4 [reference compound] | but not the activated HSA lacking the peptide (*HSA), promoted and supported cell adhesion | but not the activated HSA lacking the peptide (*HSA), promoted and supported cell adhesion
Iso4-HSA: Iso4 chemically coupled to human serum albumin via sulfo-SMCC [reference compound] | promoted and supported cell adhesion | promoted and supported cell adhesion
